From patent US10098880B2 (CELLWORKS GROUP INC., priority 2014, dated 2018)

Columns and labels:
[1] = in vivo; cited from earlier work
[2] = test system: U87 cell line (PTEN and CDKN2A mutated); test: In-vitro relative growth assay (CellTiter 96 Aqueous One), U87 cell line; format: cell-based, human; details: FIG. 4A: Nelfinavir 5 μM, Metformin 0.5 mM, Rosuvastatin 12.5 μM, individually or combined, about 71 hours
Protocol: [table] U251 cell line is procured from Sigma-Aldrich (Catalog number: 09063001). The U87 human cell line is procured from ATCC (American Type Culture Collection, Manassas, Va., ATCC® HTB-14TM). LN229 cell line is procured from ATCC (American Type Culture Collection, Manassas, Va., […]). […] DMSO, Digitoxin and drugs (Nelfinavir, Metformin and Rosuvastatin individually and in combination) are serial diluted in an assay media. 100 μl/well of the diluted sample is added to assay plate containing resuspended cells. […] The assay plate is incubated for about 71 hours followed by addition of about 20 μl of Promega Substrate CellTiter 96 Aqueous One Solution Reagent to each well. It is incubated at 37° C. The absorbance of the sample is read at about 490 nm.

[H]/N=C(/N=C(N)N)N(C)C [Metformin, 1-carbamimidamido-N,N-dimethyl-methanimidamide]
Metabolism [1]: not metabolized | reduction in relative growth [2]: do not show much efficacy
